# Apparent affinities of Ab-95 variants for a coronavirus HR2 peptide

Values reported by Engelhart et al. 2022, doi:10.1038/s41597-022-01779-4 (FLAb copy).

Target peptide (SARS-CoV-2 spike, HR2 region): PDVDLGDISGINAS

Parent scFv Ab-95: VH joined to VL by a 15-residue (Gly4Ser)3 linker. Changes lie in the light chain CDRs alone.
VH: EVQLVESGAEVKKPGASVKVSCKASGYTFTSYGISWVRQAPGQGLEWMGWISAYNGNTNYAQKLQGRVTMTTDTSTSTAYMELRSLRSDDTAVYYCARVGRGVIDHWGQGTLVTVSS
VL: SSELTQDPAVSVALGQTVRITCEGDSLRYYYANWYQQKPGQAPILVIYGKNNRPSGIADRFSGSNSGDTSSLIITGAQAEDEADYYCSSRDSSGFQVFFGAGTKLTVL

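Phage display of a naive human antibody library on the peptide gave the parent. Library AAYL52 holds single substitutions and randomly drawn double and triple substitutions in the CDRs. In AlphaSeq, yeast of one mating type display the scFv and yeast of the other type display the target. The frequency of each diploid, read from paired DNA barcodes, reflects how well the two displayed proteins bind. Each replicate has its own calibration line, from reference interactions of the BCL2 family. Each pool was mated in three replicate cultures.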

Variants are written as CDR1, CDR2 and CDR3 of the light chain (limits as in the source). Parent: EGDSLRYYYAN, GKNNRPS, SSRDSSGFQVF. Affinities are written as log10 Kd with Kd in nM; a lower number is a better binder. The mean shown is taken over the replicates in which the pair was detected. Where no diploid with the target was found in that replicate, the entry reads "nd": below detection, most likely a poor binder, though not proof of it. Parent in this assay: reference entry 2.31, copy in this library 2.25.

EGDSLRYYYAN | GKNNRPV | SVRRSSGFQVF: 4.11, 2.55, 2.51 (mean 3.06; controls 2 of 9).
EGDKLRYYYAN | GKNARPS | SSRDHSGFQVF: 5.20, 4.78, nd (mean 4.99; controls 4 of 9).
EGDSLRYYYAN | GKNNRPK | FSRDSSGFIVF: nd, nd, nd (controls 1 of 9).
EGDTLRYYYAN | GKNNRPS | SSRDSSGEQVF: 2.99, 2.85, 3.06 (mean 2.97; controls 4 of 9).
EGDSLRYYYAN | GKNNRPM | SSRDSSGLQLF: 2.46, 3.18, 2.24 (mean 2.63; controls 1 of 9).
EGDSGRYYYAN | GKNNFPS | SSRDSSGFQEF: 3.64, 3.61, 3.51 (mean 3.59; controls 4 of 9).
GGDSLRYYYSN | VKNNRPS | SSRDSSGFQVF: nd, nd, nd (controls 2 of 9).
EGDSLRYYYAN | GKENRPS | SSRDLSEFQVF: 3.13, nd, nd (controls 2 of 9).
EGDCMRYYYAN | GKNNRPS | SSEDSSGFQVF: nd, nd, nd (controls 1 of 9).
EIDSRRYYYAN | GKNNRCS | SSRDSSGFQVF: nd, nd, nd (controls 4 of 9).
EGDSLRYYYAN | GKNDWGS | SSRDSSGFQVF: 4.52, nd, 4.06 (mean 4.29; controls 1 of 9).
ESDSLRYYYAN | GKNNRPS | SSRDSSYFQVF: 3.35, 2.32, 2.57 (mean 2.75; controls 2 of 9).
EGDSLVYYYAN | GDNNRPS | SSRDSSGFEVF: 3.16, 4.72, nd (mean 3.94; controls 1 of 9).
EGDSLRYYWQN | GKNNRPS | SFRDSSGFQVF: 4.71, 3.61, nd (mean 4.16; controls 4 of 9).
EGDSLRYYYAN | GKNNRPS | SSRDESGGMVF: nd, 3.35, nd (controls 1 of 9).
EGDSLRIYYAD | GKANRPS | SSRDSSGFQVF: 4.52, 3.71, 4.47 (mean 4.23; controls 3 of 9).
EGDSLRYYYAN | GKNNRPS | SSRDVSGMQRF: 2.64, 2.75, 2.42 (mean 2.60; controls 2 of 9).
EGDSLQYYYTN | GKWNRPS | SSRDSSGFQVF: nd, 3.83, 4.10 (mean 3.96; controls 7 of 9).
EGDSHRYYYAQ | GKNNGPS | SSRDSSGFQVF: 4.03, 4.18, 4.30 (mean 4.17; controls 5 of 9).
ENDSLRYYYAN | GKNNRPS | SSRMSSGFQVF: 3.55, nd, nd (controls 0 of 9).
EGDSLRYYYAN | GKNNIPS | SIRDSSGFQVF: 2.49, 2.80, nd (mean 2.65; controls 2 of 9).
EGDSLRYYYAN | GHNNRPS | SSRDSSMFQVF: 3.48, 2.53, 2.07 (mean 2.69; controls 0 of 9).
ECDSLRYYYAN | GKNNRPS | ESRDSIGFQVF: 4.41, nd, 4.30 (mean 4.36; controls 3 of 9).
EGDSLRYYYAN | GKNNRPS | SSRDSARFQCF: 2.19, 1.95, 1.92 (mean 2.02; controls 5 of 9).
EWRSLRYYYAN | GKNNRPS | SVRDSSGFQVF: 4.39, 4.94, nd (mean 4.66; controls 5 of 9).
EGDSLRYYCEN | GKNNRPS | SSRDSSGFQVF: 3.60, 3.69, nd (mean 3.65; controls 3 of 9).
EGDSLRYYYAN | GKNQRPS | SSRDSSGFDCF: 2.70, 3.43, nd (mean 3.06; controls 3 of 9).
EFDSLRLYYAN | GKFNRPS | SSRDSSGFQVF: nd, 3.42, nd (controls 2 of 9).
EGDSLRYYYAN | GKNNRPS | SSRDSCNWQVF: 3.58, nd, 3.95 (mean 3.76; controls 3 of 9).
EGDSLRYYYAN | GKNNRRS | SSRDMSGFQVF: 3.70, 3.25, 3.13 (mean 3.36; controls 3 of 9).
EKDSLRYYYAK | GKNNRPS | SSRDSSGFQPF: nd, nd, nd (controls 5 of 9).
EGDDLRYYRAN | GKNNRPS | SSRDSSGFQVN: 2.98, 3.08, 2.41 (mean 2.83; controls 3 of 9).

The closing 4 entries, repeated:

{"CDR-L1": "EGDSLRYYYAN", "CDR-L2": "GKNNRPS", "CDR-L3": "SSRDSCNWQVF", "log10 Kd (nM) by replicate": "3.58, nd, 3.95", "log10 Kd (nM), mean": "3.76", "control signals": "3/9"}
{"CDR-L1": "EGDSLRYYYAN", "CDR-L2": "GKNNRRS", "CDR-L3": "SSRDMSGFQVF", "log10 Kd (nM) by replicate": "3.70, 3.25, 3.13", "log10 Kd (nM), mean": "3.36", "control signals": "3/9"}
{"CDR-L1": "EKDSLRYYYAK", "CDR-L2": "GKNNRPS", "CDR-L3": "SSRDSSGFQPF", "log10 Kd (nM) by replicate": "nd, nd, nd", "log10 Kd (nM), mean": "nd", "control signals": "5/9"}
{"CDR-L1": "EGDDLRYYRAN", "CDR-L2": "GKNNRPS", "CDR-L3": "SSRDSSGFQVN", "log10 Kd (nM) by replicate": "2.98, 3.08, 2.41", "log10 Kd (nM), mean": "2.83", "control signals": "3/9"}

Empty control strains, which show no peptide, gave a signal in 28% of pairings with library AAYL52; the median was 3.91 and 95% of these signals were weaker than 2.90. No background was subtracted. The control count says in how many pairings with the empty strains this scFv gave a signal.